In patent US20090253622A1, “USE OF TLR3 AGONISTS FOR THE TREATMENT OF NEURODEGENERATIVE DISORDERS” (Nederlandse Organisatie voor toegepast - …, priority 2006, published 2009):

Test system: human adult astrocytes
Assay: cDNA array profiling of cytokine, chemokine and growth factor genes in human adult astrocytes
Assay type: cell-based
Details: 200 U/mL IFNβ control, data not shown
Experimental: Adult human astrocytes from post-mortem subcortical white matter samples were isolated and cultured as previously described (Bsibsi et al., J Neuropath Exp Neurol 61:1013-1021 [2002]). As determined by specific staining for cellular markers for astrocytes (glial fibrillary acidic protein; GFAP) and microglia (CD68) astrocyte cultures were essentially homogeneous; as a rule all cells expressed GFAP and none of them expressed CD68. When indicated astrocytes were stimulated with 50 μg/mL poly I:C (Amersham Pharmacia Biotech, Piscataway, N.J.) or 200 ng/mL LPS (Sigma-Aldrich, Steinheim, Germany) to activate TLR3 and TLR4, respectively. These doses were selected on the basis of maximum effects in astrocytes. […]
Analysis of the mRNA profile of astrocytes was performed by hybrid selection of ^32P-labeled cDNA on Clontech human cytokine/chemokine Atlas® arrays as previous described (Meeuwsen et al., Glia 43:243-253 [2003]). Hybridization signals for each of the 268 cytokine, chemokine and growth factor (receptor) genes were calculated as the mean of duplicate measurements, corrected for background intensity and quantified using software provided by the manufacturer. Relative expression was calculated by dividing these hybridization signals by the mean signal for all nine housekeeping reference genes on the corresponding array. […]

B1: IFN-β: interferon beta, therapeutic agent in multiple sclerosis (protein, UniProt P01574 22-187, looked up)
Interferon beta: MSYNLLGFLQRSSNFQCQKLLWQLNGRLEYCLKDRMNFDIPEEIKQLQQFQKEDAALTIYEMLQNIFAIFRQDSSSTGWNETIVENLLANVYHQINHLKTVLEEKLEKEDFTRGKLMSSLHLKRYYGRILHYLKAKEYSHCAWTIVRVEILRNFYFINRLTGYLRN
modifications: interferon beta-1a (Avonex)
notes: interferon beta, therapeutic agent in multiple sclerosis
induction of CXCL8 and CXCL2: strongly induced
